{
  "source": "patent US20190151346A1",
  "about": "“COMBINATIONS THERAPIES FOR THE TREATMENT OF CANCER” (INSERM (INSTITUTE NATIONAL DE LA SANTÉ ET DE LA RECHERCHE …, priority 2016, published 2019)",
  "system": "EGFR",
  "test": "Tyrosine phosphorylation by Western blotting: EGFR phosphorylation in TNBC cell lines",
  "type": "cell-based",
  "procedure": "BT20 and MDA-MB468 triple negative (HER2-, ER-, PR-) were obtained from American Type Culture Collection (ATCC N°HTB19, and ATCC N°HTB132, respectively). […] MDA-MB468 cells were grown in a complete DMEM-F12 media with glutamine, 10% FCS and penicillin—streptomycin. All cells were maintained in a humidified 5% CO2 atmosphere at 37° C. All experiments were conducted with cells at confluency and starved for an overnight.\nCells (3×10^5) were seeded in 6-well plates in complete medium for 24 hours then starved for another overnight. Cells were then stimulated with IL-17E (10 ng/ml), EGF (10 ng/ml), or a combination of both for 30 min in serum-free medium. Cells were then lysed in 1% Triton X100 buffer and left on ice for 1 hours. Protein samples were then subjected to 8% SDS-PAGE. Western blotting using specific antibodies assessed then the phosphorylation of the various kinases.",
  "data": [
    {"smiles": "COc1cc2ncnc(Nc3ccc(F)c(Cl)c3)c2cc1OCCCN1CCOCC1", "note": "[Iressa, Gefitinib]", "values": [
      {"measurement": "EGFR tyrosine phosphorylation induced by the combination of IL-17E and EGF", "setting": "BT20 and MDA-MB468, Iressa 0.25 μM, FIG. 2B", "result": "remarkably decreased"},
      {"measurement": "EGFR tyrosine phosphorylation induced by the combination of IL-17E and EGF", "setting": "IJG-1731, Iressa 0.25 μM, FIG. 2B", "result": "to a lesser extends"},
      {"measurement": "IL-17B and -E induced Y1086EGFR phosphorylation", "setting": "TNBC cell lines, in the presence of Iressa, discussion", "result": "specific inhibition"},
      {"measurement": "IL-17E- and EGF-induced Y1086-EGFR phosphorylation", "setting": "three cell lines (IJG-1731, BT20, MDA-MB468), Iressa 0.25 μM, FIG. 2B", "result": "similarly decreased"}
    ]}
  ]
}
